According to US20080241129A1, “ADIPOCYTE SECRETED PROTEIN CCDC80 IS A POTENT STIMULATOR OF BONE FORMATION” (Wyeth, priority 2007, published 2008):

How the values were obtained:
[1] = test system: BMP-response element (BMP-dependent transcriptional activity) in C2C12 cells; test: BMP-response element luciferase reporter in C2C12 cells; type: cell-based; conditions: BMP-2 50 ng/ml, 48 hrs
Excerpt: (§1) As described above, BMP-2 is a well-known osteogenic factor and is used clinically as a bone-inductive agent. It has also been shown that osteogenic effects of strains, cholesterol-lowering drugs, involve up-regulation of endogenous BMP-2 (Chowdhury J R et al., Science 254:1802-05 (1991)). Thus, Applicants next examined if stimulatory effects of Ccdc80 on bone formation might involve actions/activities of BMP-2. To do this, C2C12 cells were transiently transfected with plasmids containing either a BMP-response element fused to a luciferase reporter gene (to monitor BMP-dependent transcriptional activity) or a response element containing binding sites for the TCF/LEF transcription factors fused to a luciferase reporter gene (to monitor β-catenin-dependent transcriptional activity). After transfection, cells were infected with an adenovirus encoding either GFP or human Ccdc80 for 16 hrs, after which they were allowed to differentiate in low-mitogenic condition (reduction of serum from 10% to 1% FBS) in the absence or presence of BMP-2 (50 ng/ml) for 48 hrs. BMP- and β-catenin-mediated transcription were evaluated by measuring luciferase activity, and results were expressed relative to β-galactosidase (control).

[2] = test system: β-catenin-mediated transcriptional activity in C2C12 cells; test: TCF/LEF luciferase reporter (β-catenin-dependent transcription) in C2C12 cells; type: cell-based; conditions: BMP-2, C2C12 cells
Excerpt: as §1
Applicants then determined the effect of Ccdc80 on β-catenin-mediated transcription, a known component of bone remodeling in a large number of experimental paradigms. […]

B1: BMP-2: bone morphogenetic protein-2, well-known osteogenic factor used clinically as a bone-inductive agent (protein, UniProt P12643 283-396, looked up)
Bone morphogenetic protein 2: QAKHKQRKRLKSSCKRHPLYVDFSDVGWNDWIVAPPGYHAFYCHGECPFPLADHLNSTNHAIVQTLVNSVNSKIPKACCVPTELSAISMLYLDENEKVVLKNYQDMVVEGCGCR
[1]
  transcriptional activity of the BMP-response element: dramatically enhanced
[2]
  β-catenin-mediated transcriptional activity: blunts
